According to ChEMBL document CHEMBL1157629, “Acetylcholinesterase inhibitors from the toadstool Cortinarius infractus” (Bioorg Med Chem, 2010):
pIC50: −log10 of the molar value.

Sequences of proteins named here, by UniProt entry; tags and fusion partners are left off.
UniProt P81908, whole entry: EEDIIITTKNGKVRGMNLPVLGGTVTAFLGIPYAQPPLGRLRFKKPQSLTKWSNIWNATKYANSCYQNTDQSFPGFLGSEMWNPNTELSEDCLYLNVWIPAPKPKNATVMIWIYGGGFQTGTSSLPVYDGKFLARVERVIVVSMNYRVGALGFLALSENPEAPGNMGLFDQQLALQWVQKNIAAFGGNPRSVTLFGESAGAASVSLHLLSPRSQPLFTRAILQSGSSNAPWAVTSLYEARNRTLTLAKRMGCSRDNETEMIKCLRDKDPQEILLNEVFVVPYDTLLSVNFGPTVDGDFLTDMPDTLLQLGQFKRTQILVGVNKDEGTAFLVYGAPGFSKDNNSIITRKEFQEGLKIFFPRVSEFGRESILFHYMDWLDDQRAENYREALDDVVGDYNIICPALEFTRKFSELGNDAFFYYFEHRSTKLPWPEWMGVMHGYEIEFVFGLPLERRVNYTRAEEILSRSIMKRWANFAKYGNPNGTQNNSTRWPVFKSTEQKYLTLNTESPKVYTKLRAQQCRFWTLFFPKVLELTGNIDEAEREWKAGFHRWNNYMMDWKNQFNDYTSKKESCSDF

Key:
[1] = biological target: T1, Acetylcholinesterase (Bos taurus, UniProt P23795)
T1 sequence (P23795 whole entry): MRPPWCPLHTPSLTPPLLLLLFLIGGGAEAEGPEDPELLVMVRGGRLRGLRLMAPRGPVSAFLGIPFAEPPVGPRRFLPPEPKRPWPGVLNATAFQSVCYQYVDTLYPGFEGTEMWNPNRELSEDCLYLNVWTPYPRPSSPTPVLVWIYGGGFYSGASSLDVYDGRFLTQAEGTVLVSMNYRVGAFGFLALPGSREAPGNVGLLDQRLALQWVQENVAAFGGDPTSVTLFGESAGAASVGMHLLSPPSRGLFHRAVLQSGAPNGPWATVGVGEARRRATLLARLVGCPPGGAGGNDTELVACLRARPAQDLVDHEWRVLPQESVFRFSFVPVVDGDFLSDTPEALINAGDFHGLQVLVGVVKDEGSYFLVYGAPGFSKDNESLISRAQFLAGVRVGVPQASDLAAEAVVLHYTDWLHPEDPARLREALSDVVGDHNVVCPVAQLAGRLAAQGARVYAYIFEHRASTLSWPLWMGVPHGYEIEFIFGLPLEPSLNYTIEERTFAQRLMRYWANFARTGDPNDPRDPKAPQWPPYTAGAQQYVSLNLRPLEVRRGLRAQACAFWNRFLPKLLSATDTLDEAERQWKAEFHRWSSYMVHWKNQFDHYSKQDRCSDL

[2] = biological target: Cholinesterase (Equus caballus, UniProt P81908)

Structure (SMILES): CNC(=O)Oc1ccc2c(c1)[C@]1(C)CCN(C)[C@@H]1N2C [PHYSOSTIGMINE]
- pIC50 [1]: 5.59
- pIC50 [2]: 5.87
